From ChEMBL document CHEMBL3992491, “Discovery, structure-activity relationship studies, and anti-nociceptive effects of N-(1,2,3,4-tetrahydro-1-isoquinolinylmethyl)benzamides as novel opioid receptor agonists” (Eur J Med Chem, 2017) come the findings set out here.

Chains of the proteins cited; added tags and fusions are not shown.
UniProt P35372, whole entry: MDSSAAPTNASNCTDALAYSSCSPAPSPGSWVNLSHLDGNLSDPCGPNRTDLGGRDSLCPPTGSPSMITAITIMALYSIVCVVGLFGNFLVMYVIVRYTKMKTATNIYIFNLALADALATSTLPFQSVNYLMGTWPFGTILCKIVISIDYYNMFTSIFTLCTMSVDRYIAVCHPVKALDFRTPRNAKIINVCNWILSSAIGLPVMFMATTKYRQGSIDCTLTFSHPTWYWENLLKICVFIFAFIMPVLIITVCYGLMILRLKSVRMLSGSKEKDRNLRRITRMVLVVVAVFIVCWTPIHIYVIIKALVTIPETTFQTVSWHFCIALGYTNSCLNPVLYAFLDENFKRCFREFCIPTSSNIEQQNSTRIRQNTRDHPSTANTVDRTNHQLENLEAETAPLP

The assay concerns the target Mu-type opioid receptor (Homo sapiens, UniProt P35372). The assay is described as follows: Agonist activity at human MOR expressed in HEK293 cells assessed as inhibition of forskolin-induced adenylyl cyclase-mediated cAMP accumulation after 30 mins by HTRF assay. Format: functional, cell-based.
As to `O=C(NCC1NCCc2ccccc21)c1ccc(Cl)cc1` (stereo unspecified), the Imax is 80.4%. As for `COc1ccc(C(=O)NCC2NCCc3ccccc32)cc1` (stereo unspecified), the Imax came out at 62.3%. Under `O=C(NCC1NCCc2ccccc21)c1ccc(Cl)c(Cl)c1` (stereo unspecified) stands 67.9%; under `Cc1ccc(C(=O)NCC2NCCc3ccccc32)cc1C` (stereo unspecified), 72.8%.

On to `O=C(NCC1NCCc2ccccc21)c1ccc(F)cc1` (stereo unspecified), for which the Imax is 80.1%. For `O=C(NCC1NCCc2ccccc21)c1ccc(OC(F)(F)F)cc1` (stereo unspecified) the value was 77.1%.
